The assay concerns the target Aurora2 (Homo sapiens, UniProt O14965). Nature of the assay: Aurora inhibition, standard coupled enzyme assay. As to conditions: read-out: Aurora2 Inhibitory Activity (IC50 class); 40 μM ATP, 30° C.

Chains of the proteins cited; added tags and fusions are not shown.
UniProt O14965, whole entry: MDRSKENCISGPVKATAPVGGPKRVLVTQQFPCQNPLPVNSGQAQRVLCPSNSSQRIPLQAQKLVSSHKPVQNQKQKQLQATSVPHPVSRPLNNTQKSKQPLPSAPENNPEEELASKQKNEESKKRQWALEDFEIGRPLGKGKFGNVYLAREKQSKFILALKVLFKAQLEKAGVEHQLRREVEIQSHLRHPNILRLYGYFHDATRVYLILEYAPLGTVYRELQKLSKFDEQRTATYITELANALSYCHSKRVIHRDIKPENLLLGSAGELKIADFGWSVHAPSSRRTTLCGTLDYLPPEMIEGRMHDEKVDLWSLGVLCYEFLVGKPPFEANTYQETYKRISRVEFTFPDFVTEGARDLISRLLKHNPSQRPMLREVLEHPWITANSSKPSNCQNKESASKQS

The IC50 is the point on the concentration scale where inhibition reaches its midpoint.

Regarding `CCN(C)C(=O)c1cc(-c2[nH]ncc2-c2ccc3c(c2)OCO3)c[nH]1`, the IC50 is 5 to 10 µM.

The values above are taken from patent publication US6593357B1, “Pyrazole compositions useful as inhibitors of ERK” (Vertex Pharmaceuticals Incorporated, priority 2000, dated 2003).
